Measurements: article doi:10.1101/116368v1 (biorxiv, 2017)

Biological target: T1, STARD1 (StAR), STARD1^S195E, residues 66-285 (Homo sapiens, UniProt P49675, S195E)
T1 sequence (P49675 66-285 S195E): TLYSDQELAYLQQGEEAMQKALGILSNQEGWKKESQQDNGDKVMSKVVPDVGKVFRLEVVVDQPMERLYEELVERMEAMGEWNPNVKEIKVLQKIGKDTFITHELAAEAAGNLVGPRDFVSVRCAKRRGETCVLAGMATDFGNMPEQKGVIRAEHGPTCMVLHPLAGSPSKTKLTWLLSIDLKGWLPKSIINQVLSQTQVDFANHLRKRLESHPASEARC
Assay: NBD fluorescence titration, quadratic fit
Type: binding

Kd: 130 ± 23 nM
Compound: CC(CCC[C@@H](C)[C@H]1CC[C@H]2[C@@H]3CC=C4C[C@@H](O)CC[C@]4(C)[C@H]3CC[C@]12C)N(C)c1ccc([N+](=O)[O-])c2nonc12 (stereo partly shown) [25NC, 25-NBD-cholesterol]
